Experimental data published in patent US20100022542A1, “COMPOUNDS EXHIBITING THROMBOPOIETIN RECEPTOR AGONISM” (Shionogi & Co., Ltd., priority 2000, published 2010).

Sequences of proteins named here, by UniProt entry; tags and fusion partners are left off. Residues count along the entry.
UniProt P40238, 26-635 limits assumed: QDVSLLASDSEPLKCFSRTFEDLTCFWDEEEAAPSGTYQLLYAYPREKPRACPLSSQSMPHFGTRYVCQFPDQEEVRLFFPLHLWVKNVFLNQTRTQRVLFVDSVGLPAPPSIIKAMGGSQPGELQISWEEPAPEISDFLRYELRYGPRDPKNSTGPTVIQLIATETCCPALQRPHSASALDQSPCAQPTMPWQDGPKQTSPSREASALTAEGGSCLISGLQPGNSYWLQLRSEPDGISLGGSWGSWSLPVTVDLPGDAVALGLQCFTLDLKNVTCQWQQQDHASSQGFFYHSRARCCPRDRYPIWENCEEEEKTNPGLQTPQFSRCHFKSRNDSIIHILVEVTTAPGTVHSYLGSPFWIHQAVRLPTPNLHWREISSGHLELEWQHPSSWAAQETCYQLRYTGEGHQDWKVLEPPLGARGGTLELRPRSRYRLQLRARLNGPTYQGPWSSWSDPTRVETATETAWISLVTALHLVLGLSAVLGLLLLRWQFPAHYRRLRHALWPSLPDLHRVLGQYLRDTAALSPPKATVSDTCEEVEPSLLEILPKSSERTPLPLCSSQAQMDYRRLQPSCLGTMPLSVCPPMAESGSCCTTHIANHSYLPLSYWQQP

The molecules below were run against human TPO receptor (hTPOR) (Homo sapiens, UniProt P40238) (assay: Proliferation of TPO dependent BaF/hTPOR cells, WST-1, thrombopoietic activity ED50 (Test Example 3)). Settings: read-out: ED50, 20 h incubation then WST-1 4 h, absorbance at 450 nm.
Source text: FIG. 2: The chart represents proliferation of the human TPO dependent cells bearing human TPO receptors by the present invention compound, wherein the x-axis is concentration of the present invention compound, and the y-axis is the absorbance as an indicator of cell proliferation. Open circles indicate a response of human TPO, and closed circles indicate a response of the compound (B-1).
The TPO dependent BaF/hTPOR cell line which was established by introducing human TPO receptor (hTPOR) into BaF-B03 cells according to Collins et al (J. Cell. Physiol., 137:293-298 (1988)) was used to test the thrombopoietic activity of the present compound. The DNA sequences and encoded peptide sequences for human hTPOR have been described by Vigon et al (Proc. Natl. Acad. Sci. USA, 89:5640-5644 (1992)). TPO dose not have any ability to support proliferation of interleukin-3 dependent parental cell line BaF-B03. BAF/hTPOR cells were maintained in RPMI medium and WEHI-3B conditioned medium as a source of murine interleukin-3 (IL-3). These cells were washed and resuspended in RPMI medium without a source of murine IL-3 and seeded into each well of 96-well microtiter plates at a density of 5×10^4 cells per well in the absence or presence of various concentration of hTPO or the present compound. After incubation at 37° C. for 20 hours in the 5% CO2 incubator, 10% WST-1 reagent (Takara Biomedicals, Japan) was added to each wells and the cells were further incubated for 4 hours. Effect of the present compound on the growth of BAF/mTPOR cell line which was established by introducing murine TPO receptor (mTPOR) into BAF-B03 cells is shown in FIG. 3. Table 8 exemplifies the ED50 for tested compounds of the present invention, wherein the ED50 is the half concentration of the concentration showing the maximum thrombopoietic activity.

SMILES | EC50
O=C(Nc1nc(-c2ccc(Cl)c(Cl)c2)cs1)c1ccc(-c2ccnc(C(=O)O)c2)cc1 | 0.465 µM
O=C(/C=C/c1ccc(S(=O)(=O)O)cc1)Nc1nc(-c2ccc(Cl)c(Cl)c2)cs1 | 0.26 µM
COCCCNC(=O)/C(C)=C/c1ccc(C(=O)Nc2nc(-c3ccc(Cl)c(Cl)c3)cs2)cc1 | 0.139 µM
COC(=O)c1ccc(/C=C/C(=O)Nc2nc(-c3ccc(Cl)c(Cl)c3)cs2)cc1 | 0.693 µM
O=C(O)/C(Cl)=C/c1ccc(C(=O)Nc2nc(-c3cc(Cl)ccc3Cl)cs2)cc1 | 0.178 µM
C/C(=C\c1ccc(C(=O)Nc2nc(-c3ccc(Cl)c(Cl)c3)cs2)cc1)C(=O)NCC(C)C | 0.186 µM
CCCCCc1cc(-c2csc(NC(=O)c3ccc(/C=C(\Cl)C(=O)O)cc3)n2)ccc1F | 0.026 µM
C/C(=C\c1ccc(C(=O)Nc2nc(-c3ccc(Cl)c(Cl)c3)cs2)cc1)C(N)=O | 0.081 µM
O=C(O)/C(Cl)=C/c1ccc(C(=O)Nc2nc(-c3cccc(C(F)(F)F)c3F)cs2)s1 | 0.25 µM
CCOC(=O)/C(C)=C/c1ccc(C(=O)Nc2nc(-c3cccc(F)c3)cs2)cc1 | 0.864 µM
CNC(=O)c1ccc(/C=C/C(=O)Nc2nc(-c3ccc(F)c(F)c3)cs2)cc1 | 0.975 µM
CC(C)(C)NS(=O)(=O)c1ccc(/C=C/C(=O)Nc2nc(-c3ccc(Cl)c(Cl)c3)cs2)cc1 | 0.373 µM
C/C(=C\c1ccc(S(N)(=O)=O)cc1)C(=O)Nc1nc(-c2ccc(Cl)c(Cl)c2)cs1 | 0.475 µM
C/C(=C\c1ccc(C(=O)Nc2nc(-c3ccc(Cl)c(Cl)c3)cs2)cc1)C(=O)O | 0.066 µM
NS(=O)(=O)c1ccc(/C=C/C(=O)Nc2nc(-c3ccc(Cl)c(Cl)c3)cs2)cc1 | 0.208 µM
O=C(/C=C/c1ccc(C(=O)O)cc1)Nc1nc(-c2ccc(Cl)c(Cl)c2)cs1 | 0.077 µM
CCOC(=O)/C(C)=C/c1ccc(C(=O)Nc2nc(-c3ccc(Cl)c(Cl)c3)cs2)cc1 | 0.117 µM
O=C(O)/C(Cl)=C/c1ccc(C(=O)Nc2nc(-c3ccc(C(F)(F)F)c(Br)c3F)cs2)cc1 | 0.805 µM
CNC(=O)c1ccc(/C=C/C(=O)Nc2nc(-c3ccc(Cl)c(Cl)c3)cs2)cc1 | 0.189 µM
CNC(=O)c1ccc(/C=C(\F)C(=O)Nc2nc(-c3ccc(Cl)c(Cl)c3)cs2)cc1 | 0.403 µM
